Tested on: Bovine nasal cartilage
Test: Cartilage degradation assay (hydroxyproline/collagen release, MMP1)
Method: Bovine nasal septum cartilage was held at 4° C. overnight after slaughter. 2 mm diameter discs were cut from 2 mm slices and washed twice in HBSS. Three discs per well of a 24 well plate (Costar) were incubated at 37° C., 5% CO2 for 24 hrs in a 600 μl volume of DMEM (Sigma) containing 25 mM HEPES supplemented with 2 mM glutamine, 100 μg/ml streptomycin, 100 U/ml penicillin and 2.5 μg/ml amphotericin B (cartilage degradation medium, CDM). Cartilage was cultured in quadruplicate wells in either: 600 μl of CDM alone, 2, 10 or 50 ng/ml human recombinant TNFα alone, 10 ng/ml rhOSM alone (R&D systems) or TNFα+OSM and incubated for 7 days at 37° C., 5% CO2. Supernatants were harvested and replaced with fresh medium containing identical test reagents to day 1. […] The cumulative level of OH-proline released into the medium by day 14 was measured and expressed as the percentage of total released as set out below.
Hydroxyproline release was assayed (as a measure of collagen degradation) using a microtitre plate modification of the method in (Bergmann I and loxley R. (1963) Anal. Biochem. 35 1961-1965. Chloramine T (7%) w/v) was diluted 1:4 in acetate citrate buffer (57 g sodium acetate, 37.5 g tri-sodium citrate, 5.5 g citrate acid, 385 ml propan-2-ol per liter water). […] The plate was heated to 65° C. for 35 min, cooled and the absorbance at 560 nm determined. […]

In the case of TNFα: human recombinant TNFα, the collagen release (TNFα alone 50 ng/ml, day 14) is reported as “less than 10%” and the “MMP1 secretion (total collagenase activity)” value (day 7, OSM 10 ng/ml, TNFα 50 ng/ml) is reported as “neither OSM nor TNFα alone, used at 10 ng/ml or 50 ng/ml, respectively, induced significant MMP1 secretion”.

From patent publication US7291332B2, “Inflammatory mediator antagonists” (SmithKline Beecham Corporation, priority 1998, dated 2007)
